Read-outs that look alike come from different tables or passages of the source.
What was measured:
MCR-1 [1] = target: T1, MCR-1 (Homo sapiens, UniProt Q01726); assay: cAMP assay for melanocortin receptors, HEK 293 cells expressing MCR-1
Method: HEK 293 cells expressing MCR-1, MCR-3, MCR-4 and MCR-5 were used (see Example II). Cells were plated at 20,000 cells per well in a 96-well plate coated with collagen. The next day, cells were pretreated with 75 μl of 0.4 mM 3-isobutyl-1-methylxanthine (IBMX) in low serum medium containing DMEM, 25 mM HEPES, non-essential amino acids, vitamins, 100 units/ml penicillin, 100 μg/ml streptomycin and 0.1% COSMIC CALF SERUM. IBMX is an inhibitor of cAMP phosphodiesterase. The pretreatment was carried out for 10 min at 37° C.
Following pretreatment, 25 μl of diluted isoquinoline compound was added to the wells, and cells were incubated for 15 min at 37° C. Cells were lysed by adding 25 μl saponin lysis buffer and incubating 2 to 5 min. Plates were covered and stored at −20° C.
cAMP concentration was determined by ELISA. Briefly, 96 well ELISA plates were coated with goat anti-cAMP antibody in PBS for 12 to 72 hr at 4° C. 50 μl of sample was mixed with 50 μl of cAMP ELISA buffer containing 1% bovine serum albumin, 10% heat-inactivated donor horse serum, 1% normal mouse serum and 0.05% TWEEN-20 in PBS, and the diluted sample was added to the coated ELISA plate. Standards of known concentrations of cAMP were added to separate wells. 25 μl of 16 ng/ml cAMP-conjugated horse radish peroxidase (HRP) (cAMP-HRP) was added to each well, and the plates were […] at room temperature. Plates were washed and the binding of cAMP-HRP was detected with 3,3′,5,5′-tetramethylbenzidine (TMB) and hydrogen peroxide using standard immunoassay procedures.
Various isoquinoline compounds were tested for their ability to activate MC receptor by measuring cAMP as described in Example III.

The chains behind the UniProt entries cited, without tags or fusion partners.
UniProt Q01726, whole entry: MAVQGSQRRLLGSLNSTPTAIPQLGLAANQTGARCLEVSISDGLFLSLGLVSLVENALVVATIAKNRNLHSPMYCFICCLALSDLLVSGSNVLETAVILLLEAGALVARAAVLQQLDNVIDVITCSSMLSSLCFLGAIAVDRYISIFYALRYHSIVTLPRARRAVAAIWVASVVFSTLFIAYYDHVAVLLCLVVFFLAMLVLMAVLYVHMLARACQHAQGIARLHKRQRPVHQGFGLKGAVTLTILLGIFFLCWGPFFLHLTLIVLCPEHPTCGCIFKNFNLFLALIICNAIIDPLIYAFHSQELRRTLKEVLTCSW
UniProt P33032, whole entry: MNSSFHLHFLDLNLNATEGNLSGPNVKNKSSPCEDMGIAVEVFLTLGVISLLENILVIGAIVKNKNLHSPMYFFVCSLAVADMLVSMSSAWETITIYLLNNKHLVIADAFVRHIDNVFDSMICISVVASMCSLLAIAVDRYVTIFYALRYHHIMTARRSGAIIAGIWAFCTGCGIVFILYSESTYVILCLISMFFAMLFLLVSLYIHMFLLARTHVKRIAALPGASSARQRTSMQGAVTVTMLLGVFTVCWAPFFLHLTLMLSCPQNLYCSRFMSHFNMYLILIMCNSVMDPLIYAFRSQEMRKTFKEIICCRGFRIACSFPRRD
UniProt P41968, whole entry: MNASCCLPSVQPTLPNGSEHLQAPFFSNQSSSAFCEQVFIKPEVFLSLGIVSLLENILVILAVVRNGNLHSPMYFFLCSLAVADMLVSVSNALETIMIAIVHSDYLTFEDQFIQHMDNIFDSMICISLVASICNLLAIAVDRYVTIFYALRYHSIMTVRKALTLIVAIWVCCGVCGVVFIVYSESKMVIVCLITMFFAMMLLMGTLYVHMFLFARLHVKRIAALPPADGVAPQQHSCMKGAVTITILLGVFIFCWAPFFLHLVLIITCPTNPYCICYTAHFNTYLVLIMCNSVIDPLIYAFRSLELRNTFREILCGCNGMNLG
UniProt P32245, whole entry: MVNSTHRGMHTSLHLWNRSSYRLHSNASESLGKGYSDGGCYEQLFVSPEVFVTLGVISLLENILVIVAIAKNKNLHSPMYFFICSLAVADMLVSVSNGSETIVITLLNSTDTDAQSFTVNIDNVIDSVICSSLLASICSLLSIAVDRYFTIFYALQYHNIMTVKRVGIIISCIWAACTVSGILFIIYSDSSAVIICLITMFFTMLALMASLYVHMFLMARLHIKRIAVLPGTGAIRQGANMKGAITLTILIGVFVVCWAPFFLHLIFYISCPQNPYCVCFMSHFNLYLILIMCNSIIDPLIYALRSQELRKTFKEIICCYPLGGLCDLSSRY

MCR-5 = MCR-5 (Homo sapiens, UniProt P33032); assay: Melanocortin receptor binding assay, competition with 125I-HP 467, HEK 293 cells expressing hMCR-5; conditions: read-out: MC-5 IC50; binding to MCR-5, HEK 293 cells
Excerpt: (§1) All cell culture media and reagents were obtained from GibcoBRL (Gaithersburg Md.), except for COSMIC CALF SERUM (HyClone; Logan Utah). HEK-293 cell lines were transfected with the human MC receptors hMCR-1, hMCR-3, and hMCR-4 (Gantz et al., Biochem. Biophys. Res. Comm. 200:1214-1220 (1994); Gantz et al., J. Biol. Chem. 268:8246-8250 (1993); Gantz et al. J. Biol. Chem. 268:15174-15179 (1993); Haskell-Leuvano et al., Biochem. Biophys. Res. Comm. 204:1137-1142 (1994); each of which is incorporated herein by reference). […]
(§2) GF/B filter plates were prepared by soaking for at least one hour in 5 mg/ml BSA and 10 mM CaCl2. […] Filter plates were counted using a Packard Topcount (Packard Instrument Co.) and data analyzed using GraphPad PRISM v2.0 (GraphPad Software Inc.; San Diego Calif.) and Microsoft EXCEL v5.0a (Microsoft Corp.; Redmond Wash.).
(§3) To assay isoquinoline compounds, binding assays were performed in duplicate in a 96 well format. […] Cells were harvested on GF/B filter plates as described above and counted. […]

MCR-3 = MCR-3 (Homo sapiens, UniProt P41968); assay: Melanocortin receptor binding assay, competition with 125I-HP 467, HEK 293 cells expressing hMCR-3; conditions: read-out: MC-3 IC50; binding to MCR-3, HEK 293 cells
Excerpt: as §1, §2, §3

MCR-4 = MCR-4 (Homo sapiens, UniProt P32245); assay: Melanocortin receptor binding assay, competition with 125I-HP 467, HEK 293 cells expressing hMCR-4; conditions: for MC-4 IC50: TRG 2414 library, inhibition of binding of 125I-HP 467, HEK 293 cells expressing MCR-4; for IC50: read-out: MC-4 IC50
MCR-1 [2] = target: T1, MCR-1; assay: Melanocortin receptor binding assay, competition with 125I-HP 467, HEK 293 cells expressing hMCR-1; conditions: for MC-1 IC50: TRG 2414 library, inhibition of binding of 125I-HP 467, HEK 293 cells expressing MCR-1; for IC50: read-out: MC-1 IC50
[3] = TRG 2408 and TRG 2409 libraries, inhibition of 125I-HP 467 binding
[4] = competition with 125I-HP 467, HEK 293 cells expressing MCR-4
[5] = competition with 125I-HP 467, HEK 293 cells expressing MCR-1

## CN[C@H](CN)CCCCN1Cc2ccccc2C(CNCc2ccccc2O)C1c1ccc(Br)cc1 (some centres unmarked)
MCR-1 [1]; maximum amount of cAMP
  MC-1 Max (pmole) cAMP produced: 20 pmol
MCR-1 [1]; read-out: MC-1 EC50 (cAMP), 50% of maximal cAMP production
  EC50: 2.2 µM
MCR-5
  IC50: 1 µM
MCR-3
  IC50: 0.9 µM

## CC(C)Cc1ccc(C(C)C(=O)N[C@@H](CCCCN2C(=O)c3ccccc3C(C(=O)NCCc3cccc(Cl)c3)C2c2cc(C(F)(F)F)cc(C(F)(F)F)c2)C(N)=O)cc1 (some centres unmarked)
MCR-4
  MC-4 IC50: no fit
MCR-1 [2]
  MC-1 IC50: no fit

## COc1ccc(CCNC(=O)C2c3ccccc3C(=O)N(CCCC[C@H](NC(=O)Cc3ccccc3)C(N)=O)C2c2ccc(Oc3ccccc3)cc2)cc1 (some centres unmarked)
MCR-4
  MC-4 IC50: no fit
MCR-1 [2]
  MC-1 IC50: no fit

## NC[C@H](CCCN1Cc2ccccc2C(CNCc2ccccc2O)C1c1ccc(-c2ccccc2)cc1)NCCc1ccccc1 (some centres unmarked)
MCR-4; [3]
  IC50: 27.6 µM
MCR-1 [2]; [3]
  IC50: 8.22 µM

## CNCCN[C@H](CN)CCCCN1Cc2ccccc2C(CNCc2ccccc2O)C1c1ccc(Cl)cc1Cl (some centres unmarked)
MCR-4; [3]
  IC50: 4.9 µM
MCR-1 [2]; [3]
  IC50: 1.84 µM

## CN[C@H](CN)CCCCN1Cc2ccccc2C(CNCc2ccccc2O)C1c1ccc(NCCC2CC3CCC2C3)cc1 (some centres unmarked)
MCR-4; [4]
  IC50: 20.7 µM
MCR-1 [2]; [5]
  IC50: 2.6 µM

## COc1ccc(CCNC(=O)C2c3ccccc3C(=O)N(CCCC[C@H](NC(=O)c3ccccc3)C(N)=O)C2c2cc(C(F)(F)F)cc(C(F)(F)F)c2)cc1 (some centres unmarked)
MCR-4
  MC-4 IC50: no fit
MCR-1 [2]
  MC-1 IC50: no fit

## NC[C@@H](N)CCN1Cc2ccccc2C(CNCc2ccccc2O)C1c1ccc(-c2ccccc2)cc1 (some centres unmarked)
MCR-4; [3]
  IC50: 14.9 µM
MCR-1 [2]; [3]
  IC50: 6.7 µM

## COc1ccc(CNC(=O)C2c3ccccc3C(=O)N(CCCC[C@H](NC(=O)Cc3ccccc3)C(N)=O)C2c2ccc(Cl)cc2Cl)cc1 (some centres unmarked)
MCR-4
  MC-4 IC50: no fit
MCR-1 [2]
  MC-1 IC50: no fit

## COc1ccc(CCNC(=O)C2c3ccccc3C(=O)N(CCCC[C@H](NC(=O)Cc3ccccc3)C(N)=O)C2c2cc(C(F)(F)F)cc(C(F)(F)F)c2)cc1 (some centres unmarked)
MCR-4
  MC-4 IC50: no fit
MCR-1 [2]
  MC-1 IC50: no fit

## CCCNc1ccc(C2C(CNCc3ccccc3O)c3ccccc3CN2CCCC[C@@H](CN)NC)cc1 (some centres unmarked)
MCR-4; [4]
  IC50: 12.6 µM
MCR-1 [2]; [5]
  IC50: 0.64 µM

## COc1ccccc1CCNC(=O)C1c2ccccc2C(=O)N(CCCC[C@H](NC(=O)C(C)c2ccc(CC(C)C)cc2)C(N)=O)C1c1ccc(Cl)cc1Cl (some centres unmarked)
MCR-4
  MC-4 IC50: no fit
MCR-1 [2]
  MC-1 IC50: no fit

Source: patent US6608082B1, “Treatment of erectile dysfunction using isoquinoline compound melanocortin receptor ligands” (Lion Bioscience AG, priority 1998, dated 2003)
